In PubChem BioAssay AID1920062 (Sanford-Burnham Center for Chemical Genomics, 2024):
The list shows a part of the results, in another mix than the full data. Some salts or complexes appear as unconnected parts, following the source record. Active and inactive are the calls of the source.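 How the source made its calls: active means activation at 10 µM reaching about 35% in either raw or pattern-adjusted values (limit read from the data); inactive means the rest.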

Sequences of proteins named here, by UniProt entry; tags and fusion partners are left off.
UniProt P20594, whole entry: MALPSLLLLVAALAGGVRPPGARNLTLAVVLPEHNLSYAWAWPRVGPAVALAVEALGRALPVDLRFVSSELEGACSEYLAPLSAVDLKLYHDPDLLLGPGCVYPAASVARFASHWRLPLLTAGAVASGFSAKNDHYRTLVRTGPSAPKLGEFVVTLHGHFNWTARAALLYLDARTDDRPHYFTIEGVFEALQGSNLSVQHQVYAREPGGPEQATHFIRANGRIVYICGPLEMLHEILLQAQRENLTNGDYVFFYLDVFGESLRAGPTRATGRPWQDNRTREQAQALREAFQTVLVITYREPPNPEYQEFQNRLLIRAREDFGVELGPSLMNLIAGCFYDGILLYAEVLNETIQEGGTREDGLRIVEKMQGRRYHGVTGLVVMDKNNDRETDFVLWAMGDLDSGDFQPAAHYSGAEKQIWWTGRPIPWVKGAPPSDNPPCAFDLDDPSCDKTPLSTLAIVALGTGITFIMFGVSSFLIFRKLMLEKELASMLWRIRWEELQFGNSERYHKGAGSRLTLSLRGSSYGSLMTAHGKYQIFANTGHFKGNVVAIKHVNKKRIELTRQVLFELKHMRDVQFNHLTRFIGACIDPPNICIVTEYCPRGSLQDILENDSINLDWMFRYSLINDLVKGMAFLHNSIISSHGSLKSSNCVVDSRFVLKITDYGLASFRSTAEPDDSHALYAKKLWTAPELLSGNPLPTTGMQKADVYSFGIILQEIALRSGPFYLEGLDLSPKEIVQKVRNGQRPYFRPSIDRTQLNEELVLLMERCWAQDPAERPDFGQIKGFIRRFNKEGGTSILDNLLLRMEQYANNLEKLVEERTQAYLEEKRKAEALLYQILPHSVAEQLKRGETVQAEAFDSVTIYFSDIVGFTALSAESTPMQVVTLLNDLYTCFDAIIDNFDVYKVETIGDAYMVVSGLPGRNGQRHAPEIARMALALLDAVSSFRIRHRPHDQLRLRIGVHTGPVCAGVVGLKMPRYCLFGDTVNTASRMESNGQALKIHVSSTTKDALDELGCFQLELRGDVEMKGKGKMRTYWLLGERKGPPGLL

Target: Atrial natriuretic peptide receptor 2 (Homo sapiens) (UniProt P20594)
Assay: human GC-B receptor activators, primary screen, HEK293 GC-B cells, cGMP TR-FRET, EC30 CNP (AID 1920062)
Conditions: at 10 µM, hits give high values, 0% at EC30 CNP, 100% saturating CNP

| SMILES | activation |
| --- | --- |
| COc1ccccc1-c1ccccn1.O=[N+]([O-])c1cc([N+](=O)[O-])c(O)c([N+](=O)[O-])c1 | inactive: -1.77% |
| O=[N+]([O-])c1ccc2c(c1)C=Nc1ccccc1O2 | inactive: -5.33% |
| Cc1cccc(C)c1OP(C)(N)=O (configuration not stated) | inactive: 0.25% |
| CC(C)(C)c1ccc(OP(C)(=O)Nc2ccc(SC(F)(F)F)cc2)cc1 (configuration not stated) | inactive: 2.22% |
| O=[N+]([O-])c1cc([N+](=O)[O-])c(Nc2cccnc2)c([N+](=O)[O-])c1 | inactive: 14.5% |
| Cc1cc(C)cc(OP(C)(N)=O)c1 (configuration not stated) | inactive: -1.26% |
| COc1ccc(OP(C)(=O)Nc2cccc(F)c2)cc1 (configuration not stated) | inactive: 1.08% |
| COc1ccccc1OP(C)(=O)Nc1cc(Cl)ccc1C (configuration not stated) | inactive: -7.67% |
| Cc1ccc(NP(C)(=O)Oc2ccccc2)c(C)c1 (configuration not stated) | inactive: -5.62% |
| COc1ccccc1OP(C)(=O)Nc1ccc(C)cc1 (configuration not stated) | inactive: -0.43% |
| CCOC(=O)c1ccc(NP(C)(=O)Oc2ccccc2)cc1 (configuration not stated) | inactive: -3.41% |
| CP(=O)(Nc1ccccc1Br)Oc1ccccc1 (configuration not stated) | inactive: 5.16% |
| COc1ccccc1OP(C)(=O)Nc1ccccc1 (configuration not stated) | inactive: 2.48% |
| CP(=S)(Nn1cnnc1)Oc1ccccc1 (configuration not stated) | inactive: 4.69% |
| Cc1cc(C)cc(OP(C)(=O)Nc2ccc(SC(F)(F)F)cc2)c1 (configuration not stated) | inactive: -0.8% |
| CP(=O)(NC(=O)Nc1ccccc1)Oc1ccccc1 (configuration not stated) | inactive: 2.29% |
| CCc1ccc(OP(C)(=O)N2CCN(c3ccc([N+](=O)[O-])cc3)CC2)cc1 (configuration not stated) | inactive: -4.04% |
| CP(=O)(Oc1ccccc1)OC(c1ccccc1)C(F)(F)F (configuration not stated) | inactive: -2.6% |
| CP(=O)(Nc1ccc(SC(F)(F)F)cc1)Oc1ccc(Cl)cc1 (configuration not stated) | inactive: -0.61% |
| Cc1cccc(C)c1OP(C)(=O)Nc1ccc(SC(F)(F)F)cc1 (configuration not stated) | inactive: 1.87% |
| CP(=O)(Nc1ccccn1)Oc1ccc(Cl)cc1 (configuration not stated) | inactive: 8.11% |
| O=[N+]([O-])c1cc([N+](=O)[O-])c(O)c([N+](=O)[O-])c1.c1ccc(Oc2ccncc2)cc1 | inactive: 4.07% |
| CCOC(=O)c1ccc(NP(C)(=O)Oc2ccc(OC)cc2)cc1 (configuration not stated) | inactive: 2.8% |
| CCOP(C)(=S)SCC(=O)NC(C)C(=O)O (configuration not stated) | inactive: -6% |
| CN(Cc1cccnc1)C(=O)COc1ccc(Cl)c(Cl)c1.O=[N+]([O-])c1cc([N+](=O)[O-])c(O)c([N+](=O)[O-])c1 | inactive: 0.51% |

| SMILES | activation |
| --- | --- |
| O=[N+]([O-])c1cc([N+](=O)[O-])c(-n2nnc3ccccc32)c([N+](=O)[O-])c1 | inactive: -0.33% |
| Cc1nc2ccc3ccccc3c2s1.O=[N+]([O-])c1cc([N+](=O)[O-])c(O)c([N+](=O)[O-])c1 | inactive: -5.71% |
| O=[N+]([O-])c1cc([N+](=O)[O-])c(-c2cnn(-c3ccccc3)c2)c([N+](=O)[O-])c1 | inactive: -2.79% |
| CCOC(=O)C(CC)C1=NC(C)(C)Cc2ccccc21.O=[N+]([O-])c1cc([N+](=O)[O-])c(O)c([N+](=O)[O-])c1 (configuration not stated) | inactive: -1.76% |
| O=[N+]([O-])c1cc([N+](=O)[O-])c(Nc2nnnn2CCO)c([N+](=O)[O-])c1 | inactive: 4.09% |
| COc1ccc(-c2ccccn2)cc1.O=[N+]([O-])c1cc([N+](=O)[O-])c(O)c([N+](=O)[O-])c1 | inactive: 1.85% |
| CCCOc1ccc(NP(C)(=O)Oc2ccc(Cl)cc2)cc1 (configuration not stated) | inactive: -6.25% |
| CP(=O)(Nc1ccc(SC(F)(F)F)cc1)Oc1ccccc1 (configuration not stated) | inactive: -2.28% |
| CN1CCCCC1COC(=O)C1(O)c2ccccc2CCc2ccccc21 (configuration not stated) | inactive: -8.71% |
| COc1ccccc1OP(C)(=O)Nc1c(C)cccc1C (configuration not stated) | inactive: -3.17% |
| O=C(O)c1cccc(Nc2c([N+](=O)[O-])cc([N+](=O)[O-])cc2[N+](=O)[O-])c1 | inactive: 5.03% |
| CC1=NCCc2c1[nH]c1ccccc21.O=[N+]([O-])c1cc([N+](=O)[O-])c(O)c([N+](=O)[O-])c1 | inactive: 6.97% |
| CCOC(=O)c1ccc(NP(C)(=O)Oc2cc(C)cc(C)c2)cc1 (configuration not stated) | inactive: -7.87% |
| Cc1cc(C)cc(OP(C)(=O)Nc2ccc(C)cc2C)c1 (configuration not stated) | inactive: -6.82% |
| COc1ccccc1OP(C)(=O)Nc1cccc(Br)c1 (configuration not stated) | inactive: -5.06% |
| Cc1ccc(C)c(NP(C)(=O)Oc2ccccc2)c1 (configuration not stated) | inactive: -2.8% |
| Cc1cc(C)cc(OP(C)(=O)Nc2ccccn2)c1 (configuration not stated) | inactive: 1.27% |
| CP(=O)(Nc1cccc(Br)c1)Oc1ccccc1 (configuration not stated) | inactive: -7.37% |
| CP(=O)(Nc1ccccc1F)Oc1ccccc1 (configuration not stated) | inactive: -1.62% |
| CC(C)c1ccc(OP(C)(=O)Nc2ccc(SC(F)(F)F)cc2)cc1 (configuration not stated) | inactive: 10.3% |
| O=[N+]([O-])c1cc([N+](=O)[O-])c(Nc2ccc(Cl)cc2)c([N+](=O)[O-])c1 | inactive: 3.55% |
| COc1ccc2c(c1O)-c1c(O)c(OC)cc3c1[C@H](C2)[N+](C)(C)CC3.O=[N+]([O-])c1cc([N+](=O)[O-])c([O-])c([N+](=O)[O-])c1[O-] | inactive: 0.54% |
| O=C(OC1CN2CCC1CC2)c1ccc([N+](=O)[O-])cc1 (configuration not stated) | inactive: -8.1% |
| O=C(OCCN1CCN(CCOCc2ccccc2)CC1)C(O)(c1ccccc1)c1ccccc1 | inactive: 3.59% |
| CCOC(=O)c1ccc(NP(C)(=O)Oc2ccc(F)cc2)cc1 (configuration not stated) | inactive: 3.65% |

| SMILES | activation |
| --- | --- |
| COc1ccc(OP(C)(=O)Nc2ccc(SC(F)(F)F)cc2)cc1 (configuration not stated) | inactive: -0.9% |
| CCN(CC)CCCNc1ccccc1[N+](=O)[O-].O=[N+]([O-])c1cc([N+](=O)[O-])c(O)c([N+](=O)[O-])c1 | inactive: -4.02% |
| CP(=O)(Nc1ccccc1)Oc1ccc(F)cc1 (configuration not stated) | inactive: -1.48% |
| CCCCCOc1ccc(NP(C)(=O)Oc2ccc(Cl)cc2Cl)cc1 (configuration not stated) | inactive: 0.64% |
| O=[N+]([O-])c1cc([N+](=O)[O-])c(OC2CCCCC2O)c([N+](=O)[O-])c1 (configuration not stated) | inactive: -0.02% |
| Cc1c([N+](=O)[O-])cc([N+](=O)[O-])c(Br)c1[N+](=O)[O-] | inactive: 3.54% |
| CCN(CC)CCCOC(=O)C(O)(c1ccccc1)C1CCCCC1 (configuration not stated) | inactive: -4.82% |
| CN(C)CCOC(=O)C(O)(c1ccccc1)C1CCCCC1 (configuration not stated) | inactive: -0.11% |
| COc1ccc(NP(C)(=O)Oc2ccccc2OC)cc1 (configuration not stated) | inactive: -0.07% |
| COc1ccc(OP(C)(=O)Nc2cccc(Br)c2)cc1 (configuration not stated) | inactive: -10.1% |
| Cc1c(C(c2ccc3c(c2)OCO3)c2c(C)n(C)n(-c3ccccc3)c2=O)c(=O)n(-c2ccccc2)n1C.O=[N+]([O-])c1cc([N+](=O)[O-])c(O)c([N+](=O)[O-])c1 | inactive: 0.59% |
| O=[N+]([O-])c1ccc(OP2(=O)COCCO2)cc1 (configuration not stated) | inactive: 4.65% |
| O=[N+]([O-])c1cc([N+](=O)[O-])c(NCC2CCS(=O)(=O)C2)c([N+](=O)[O-])c1 (configuration not stated) | inactive: 2.07% |
| Cc1cc(-c2cccc3ccccc23)c(C)cn1.O=[N+]([O-])c1cc([N+](=O)[O-])c(O)c([N+](=O)[O-])c1 | inactive: -3.68% |
| CCOP(C)(=S)SCC(=O)NC(C)(CC)C(=O)O (configuration not stated) | inactive: 3.74% |
| CCOP(=O)(CC)OCC | inactive: -7.87% |
| CP(=O)(Nc1ccc(SC(F)(F)F)cc1)Oc1ccc(F)cc1 (configuration not stated) | inactive: -2.74% |
| Cc1ccccc1NP(C)(=O)Nc1ccccc1C | inactive: 0.88% |
| O=[N+]([O-])c1cc([N+](=O)[O-])c(C(F)(F)F)c([N+](=O)[O-])c1O | inactive: -2.54% |
| CP(=O)(Nc1ccc2c(c1)OCCO2)Oc1ccccc1 (configuration not stated) | inactive: -0.33% |
| O=C(OCCCN1CCCC1)C(O)(c1ccccc1)C1CCCCC1 (configuration not stated) | inactive: -5.3% |
| COc1ccccc1OP(C)(=O)Nc1c(C)n(C)n(-c2ccccc2)c1=O (configuration not stated) | inactive: 1.63% |
| CCc1ccc(OP(C)(=O)Nc2cccnc2)cc1 (configuration not stated) | inactive: -5.88% |
| CP(=O)(Oc1ccccc1)N1CCOC1=O (configuration not stated) | inactive: -0.52% |
| COc1ccc(OP(C)(=O)Nc2ccc(Br)cc2)cc1 (configuration not stated) | inactive: -2.98% |

| SMILES | activation |
| --- | --- |
| CN(C)C(=O)c1c([N+](=O)[O-])cc([N+](=O)[O-])cc1[N+](=O)[O-] | inactive: 1.98% |
| COc1ccccc1OP(C)(=O)Nc1ccccc1Br (configuration not stated) | inactive: -0.98% |
| CC(C)(C)c1ccc(OP(C)(=O)O)cc1 | inactive: -0.52% |
| CP(=O)(Nc1ccc(Cl)cc1)Oc1ccc(F)cc1 (configuration not stated) | inactive: -6.75% |
| CCOC(=O)c1ccc(NP(C)(=O)Oc2ccc(Cl)cc2)cc1 (configuration not stated) | inactive: 1.08% |
| CP(=O)(OC12CC3CC(CC(C3)C1)C2)OC12CC3CC(CC(C3)C1)C2 | inactive: 1.96% |
| Nc1ccc2c(ccc3cccnc32)n1.O=[N+]([O-])c1cc([N+](=O)[O-])c(O)c([N+](=O)[O-])c1 | inactive: 0.92% |
| COc1ccccc1OP(C)(=O)Nc1ccc(C)c(C)c1 (configuration not stated) | inactive: -10.1% |
| COc1ccc(OP(C)(=O)Nc2ccccc2Br)cc1 (configuration not stated) | inactive: -5.51% |
| Cc1cc(C)cc(OP(C)(=O)Nc2cccc(C(F)(F)F)c2)c1 (configuration not stated) | inactive: -4.29% |
| O=C1C(O)=C([N+](=O)[O-])C(=O)C(O)=C1[N+](=O)[O-] | inactive: -2.02% |
| CCCCCCCCCCCCCCCC1C[N+](C)(C)CCOP(C)(=O)O1 (configuration not stated) | inactive: 9.11% |
| CP(=O)(Nc1ccc(Cl)cc1Cl)Oc1ccccc1 (configuration not stated) | inactive: -9% |
| CP(=O)(OCCOc1ccccc1)OCCOc1ccccc1 | inactive: -1.94% |
| COc1ccc(OP(C)(=O)Nc2ccccn2)cc1 (configuration not stated) | inactive: -0.23% |
| CN(C)CCOC(=O)C(O)(c1ccccc1)C1CCCC1 (configuration not stated) | inactive: 3.19% |
| COc1ccccc1OP(C)(=O)Nc1ccc(Br)cc1 (configuration not stated) | inactive: -5.58% |
| COc1ccccc1OP(C)(=O)Nc1ccc(C)cc1C (configuration not stated) | inactive: -4.95% |
| CP(=O)(Nc1ccccn1)Oc1ccccc1 (configuration not stated) | inactive: -1.27% |
| CCc1ccc(OP(C)(=O)O)cc1 | inactive: 10.5% |
| Cc1c(NP(C)(=O)Oc2ccc(C(C)C)cc2)c(=O)n(-c2ccccc2)n1C (configuration not stated) | inactive: -2.65% |
| O=[N+]([O-])c1cc([N+](=O)[O-])c(Nc2ccccn2)c([N+](=O)[O-])c1 | inactive: 1.4% |
